Apparent affinities of Ab-14 variants for a coronavirus HR2 peptide

Reference: Li et al. 2023, doi:10.1038/s41467-023-39022-2. File: FLAb, binding data.

Target peptide (SARS-CoV-2 spike, HR2 region): PDVDLGDISGINAS

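The starting antibody came from a phage panning campaign against this peptide. Designed CDR sequences, proposed from the first random library and measured here. Their group label is 14L_En_Gen (En: ensemble of fine-tuned language models; Gen: genetic algorithm). Affinity was read by AlphaSeq, a pooled yeast mating assay with surface-displayed partners. Mating (16 h, 30 °C) was followed by selection of diploids and sequencing of their barcodes. Scores were corrected for input abundance and mapped to Kd with protein pairs of known affinity run in the same pool. There are six technical replicates.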

Parent: Ab-14, a human scFv built as VH, a 15-residue (Gly4Ser)3 linker, VL. Only the CDRs of the light chain vary.
VH: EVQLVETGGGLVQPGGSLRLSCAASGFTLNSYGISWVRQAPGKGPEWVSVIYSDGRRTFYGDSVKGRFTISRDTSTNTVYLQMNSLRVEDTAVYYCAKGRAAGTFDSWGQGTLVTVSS
VL: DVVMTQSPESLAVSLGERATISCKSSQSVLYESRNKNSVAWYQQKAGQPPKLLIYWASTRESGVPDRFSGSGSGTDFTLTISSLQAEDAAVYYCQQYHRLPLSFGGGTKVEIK

The parent's light chain CDRs are KSSQSVLYESRNKNSVA, WASTRES, QQYHRLPLS; each variant's own CDRs replace them letter for letter.
The read-out is the apparent dissociation constant on a log10 scale (nM): the lower, the stronger.
Replicates are averaged; those with no signal do not enter the mean.
A pair that was not seen in that replicate is written "ND"; this usually means weak binding, but a binder can also be missed.
The authors averaged sequences with at least three values out of six and counted those with two or fewer as poor binders.

{"CDR-L1": "TISQMSTLFSQSINNVA", "CDR-L2": "EVSTREQ", "CDR-L3": "QQYDRLPLA", "log10 Kd, replicates": "1.01 0.81 0.86 1.14 0.69 1.73", "mean, log10 nM": "1.04", "signal with controls": "0/18"}
{"CDR-L1": "HMSALTLMGSRTRNSVA", "CDR-L2": "QMTTREN", "CDR-L3": "QQYDRLPLV", "log10 Kd, replicates": "0.80 0.25 0.28 0.29 0.47 0.98", "mean, log10 nM": "0.51", "signal with controls": "0/18"}
{"CDR-L1": "MIYGAARELGLAANSIA", "CDR-L2": "DNVTRYN", "CDR-L3": "QQYERLPLS", "log10 Kd, replicates": "ND ND ND ND ND 2.40", "mean, log10 nM": "2.40", "signal with controls": "0/18"}
{"CDR-L1": "MLSEVLHMLGAKKNSIA", "CDR-L2": "DLVLRAN", "CDR-L3": "QQYHRLPLF", "log10 Kd, replicates": "ND ND ND ND ND ND", "mean, log10 nM": "ND", "signal with controls": "0/18"}
{"CDR-L1": "NIYQAMHTLSQMKENVA", "CDR-L2": "DVNERGD", "CDR-L3": "QQYFRLPLS", "log10 Kd, replicates": "0.25 0.13 0.07 -0.07 0.15 0.13", "mean, log10 nM": "0.11", "signal with controls": "1/18 (2.77)"}
{"CDR-L1": "KITATMRFEQKESNNIA", "CDR-L2": "EVTTRSK", "CDR-L3": "QQYYRLPLS", "log10 Kd, replicates": "0.69 0.96 1.23 0.59 1.09 1.13", "mean, log10 nM": "0.95", "signal with controls": "1/18 (3.27)"}
{"CDR-L1": "QLSSITGHLSVEKNNVA", "CDR-L2": "EMETREN", "CDR-L3": "QQYDRLPLS", "log10 Kd, replicates": "1.43 1.19 0.56 0.58 0.53 0.99", "mean, log10 nM": "0.88", "signal with controls": "0/18"}
{"CDR-L1": "MISQLYNMGSFAINSVA", "CDR-L2": "QASQRNA", "CDR-L3": "QQYDRLPLE", "log10 Kd, replicates": "1.24 1.47 1.42 1.57 1.29 1.89", "mean, log10 nM": "1.48", "signal with controls": "1/18 (2.93)"}
{"CDR-L1": "IVSQLMLWGWHAKNSIA", "CDR-L2": "EAEMRTN", "CDR-L3": "QQYDRLPLF", "log10 Kd, replicates": "ND ND ND ND ND ND", "mean, log10 nM": "ND", "signal with controls": "0/18"}
{"CDR-L1": "KVSEFMRGLHQRKDSIA", "CDR-L2": "DMVTRSN", "CDR-L3": "QQYDRLPLS", "log10 Kd, replicates": "0.08 0.17 0.16 -0.05 0.37 0.24", "mean, log10 nM": "0.16", "signal with controls": "1/18 (2.64)"}
{"CDR-L1": "KLTMVTGHMSMSRNNVA", "CDR-L2": "EMVTREN", "CDR-L3": "QQYDRLPLS", "log10 Kd, replicates": "ND ND ND ND ND 0.86", "mean, log10 nM": "0.86", "signal with controls": "0/18"}
{"CDR-L1": "MLSQMWALGTKVKNSVA", "CDR-L2": "QASMRFN", "CDR-L3": "QQYERLPFM", "log10 Kd, replicates": "1.66 1.20 0.86 0.55 0.36 0.74", "mean, log10 nM": "0.89", "signal with controls": "1/18 (1.32)"}
{"CDR-L1": "KISQMIRVGSTHKNSIA", "CDR-L2": "EEQTRAK", "CDR-L3": "QQYHRLPLA", "log10 Kd, replicates": "2.05 1.63 1.25 2.17 1.55 2.02", "mean, log10 nM": "1.78", "signal with controls": "0/18"}
{"CDR-L1": "KLSMTTEMEHKNRNSVA", "CDR-L2": "ELVTRMQ", "CDR-L3": "QQYNRLPLS", "log10 Kd, replicates": "0.88 1.23 1.52 1.36 1.12 1.70", "mean, log10 nM": "1.30", "signal with controls": "0/18"}
{"CDR-L1": "MISSVMGINNMYNSSVA", "CDR-L2": "QAEERVE", "CDR-L3": "QQYDRLPLA", "log10 Kd, replicates": "ND ND ND ND ND ND", "mean, log10 nM": "ND", "signal with controls": "0/18"}
{"CDR-L1": "MIYGTQRELGLAANSIA", "CDR-L2": "DNVTRYS", "CDR-L3": "QQYERLPLS", "log10 Kd, replicates": "2.79 ND ND 2.88 3.73 ND", "mean, log10 nM": "3.13", "signal with controls": "4/18 (3.35)"}
{"CDR-L1": "MVNSITDHMSKQTNNVA", "CDR-L2": "ETTTREE", "CDR-L3": "QQYDRLPLS", "log10 Kd, replicates": "2.90 1.63 2.28 2.43 1.96 1.77", "mean, log10 nM": "2.16", "signal with controls": "0/18"}
{"CDR-L1": "KLSMVTGHMSVSKNNVA", "CDR-L2": "EMETRAN", "CDR-L3": "QQYDRLPLA", "log10 Kd, replicates": "0.60 1.00 0.36 0.79 0.64 0.81", "mean, log10 nM": "0.70", "signal with controls": "0/18"}
{"CDR-L1": "QLSMITGHMSVSKNNVA", "CDR-L2": "EMETRMN", "CDR-L3": "QQYDRLPLS", "log10 Kd, replicates": "0.55 0.30 0.20 -0.04 0.37 0.85", "mean, log10 nM": "0.37", "signal with controls": "2/18 (1.96)"}
{"CDR-L1": "QVMGLNGVAMSTHDSIA", "CDR-L2": "QEETRLD", "CDR-L3": "QQYHRLPLS", "log10 Kd, replicates": "ND 2.13 ND 1.26 0.90 1.18", "mean, log10 nM": "1.37", "signal with controls": "0/18"}
{"CDR-L1": "MVSQLMLWGMHAKNSIA", "CDR-L2": "EAQTRIN", "CDR-L3": "QQYDRLPLF", "log10 Kd, replicates": "ND ND ND 1.81 2.47 4.15", "mean, log10 nM": "2.81", "signal with controls": "0/18"}

For reference, 3 entries of the list once more:

| CDR-L1 | CDR-L2 | CDR-L3 | log10 Kd, replicates | mean, log10 nM | signal with controls |
|---|---|---|---|---|---|
| KLSMVTGHMSVSKNNVA | EMETRAN | QQYDRLPLA | 0.60 1.00 0.36 0.79 0.64 0.81 | 0.70 | 0/18 |
| MVNSITDHMSKQTNNVA | ETTTREE | QQYDRLPLS | 2.90 1.63 2.28 2.43 1.96 1.77 | 2.16 | 0/18 |
| MIYGTQRELGLAANSIA | DNVTRYS | QQYERLPLS | 2.79 ND ND 2.88 3.73 ND | 3.13 | 4/18 (3.35) |

Of ten entries with the parent sequence, four were seen in most replicates (averages 0.34 to 2.37), three in one and three in none, so single entries are noisy.
The range of this assay differs from that of the first round, and the authors advise against merging the two.
As a blank, each scFv also met three strains without target: over all light chain designs, 4% of these pairings were detected, typically at 2.64 and seldom below 1.59. Also given: how often the same scFv was detected with the empty control strains, with their mean in brackets.